For 47 variants, abundance fitness results are on record in the Human Domainome abundance scans (Beltran et al. 2025).

B1: Tyrosine-protein kinase ABL1, residues 64 to 120; numbered along this chain, P00519 (parent)
chain: NLFVALYDFVASGDNTLSITKGEKLRVLGYNHNGEWCEAQTKNGQGWVPSNYITPVN

± gives the uncertainty stated by the source.

The variants in this data set derive from B1. The experiment in a line: abundance fitness (aPCA) (normalised: wild type 0, dead -1); higher = more abundant; growth selection in yeast, the domain comes from the species named. The following applies: Homo sapiens.
As to NLFVALYDFVASGDNTLSITKGEKLRVLGANHNGEWCEAQTKNGQGWVPSNYITPVN [Y30A], the abundance fitness is -0.165 ± 0.09.

As for NLFVALYDFVASGDNTLSITKGEKLRVLGMNHNGEWCEAQTKNGQGWVPSNYITPVN [Y30M], the abundance fitness is -0.021 ± 0.095.

Regarding NLFVALYDFVASGDNTLSITKGEKLRVLGTNHNGEWCEAQTKNGQGWVPSNYITPVN [Y30T], the abundance fitness was -0.052 ± 0.087.

Take NLFVALYDFVASGDNTLSITKGEKLRVLGDNHNGEWCEAQTKNGQGWVPSNYITPVN [Y30D]: the abundance fitness was -0.201 ± 0.13.

NLFVALYDFVASGDNTLSITKGEKLRVLGENHNGEWCEAQTKNGQGWVPSNYITPVN [Y30E]: the abundance fitness amounted to 0.169 ± 0.095.

With NLFVALYDFVASGDNTLSITKGEKLRVLGVNHNGEWCEAQTKNGQGWVPSNYITPVN [Y30V], the abundance fitness is -0.068 ± 0.062.

Consider NLFVALYDFVASGDNTLSITKGEKLRVLGQNHNGEWCEAQTKNGQGWVPSNYITPVN [Y30Q], for which the abundance fitness was found to be 0.058 ± 0.076.

On to NLFVALYDFVASGDNTLSITKGEKLRVLGPNHNGEWCEAQTKNGQGWVPSNYITPVN [Y30P], for which the abundance fitness is -0.118 ± 0.11.

As for NLFVALYDFVASGDNTLSITKGEKLRVLRYNHNGEWCEAQTKNGQGWVPSNYITPVN [G29R], the abundance fitness was -0.103 ± 0.091.

Consider NLFVALYDFVASGDNTLSITKGEKLRVLCYNHNGEWCEAQTKNGQGWVPSNYITPVN [G29C], for which the abundance fitness is -0.237 ± 0.17.

As for NLFVALYDFVASGDNTLSITKGEKLRVLDYNHNGEWCEAQTKNGQGWVPSNYITPVN [G29D], the abundance fitness is 0.062 ± 0.12.

As to NLFVALYDFVASGDNTLSITKGEKLRVLLYNHNGEWCEAQTKNGQGWVPSNYITPVN [G29L], the abundance fitness was -0.146 ± 0.07.

Consider NLFVALYDFVASGDNTLSITKGEKLRVLTYNHNGEWCEAQTKNGQGWVPSNYITPVN [G29T], for which the abundance fitness is -0.058 ± 0.1.

Turning to NLFVALYDFVASGDNTLSITKGEKLRVLMYNHNGEWCEAQTKNGQGWVPSNYITPVN [G29M], the abundance fitness is -0.034 ± 0.068.

Take NLFVALYDFVASGDNTLSITKGEKLRVLKYNHNGEWCEAQTKNGQGWVPSNYITPVN [G29K]: the abundance fitness worked out at 0.042 ± 0.099.

On to NLFVALYDFVASGDNTLSITKGEKLRVLNYNHNGEWCEAQTKNGQGWVPSNYITPVN [G29N], for which the abundance fitness is -0.111 ± 0.21.

As for NLFVALYDFVASGDNTLSITKGEKLRVLPYNHNGEWCEAQTKNGQGWVPSNYITPVN [G29P], the abundance fitness is -0.883 ± 0.13.

Regarding NLFVALYDFVASGDNTLSITKGEKLRVLSYNHNGEWCEAQTKNGQGWVPSNYITPVN [G29S], the abundance fitness is -0.059 ± 0.074.

Take NLFVALYDFVASGDNTLSITKGEKLRVLEYNHNGEWCEAQTKNGQGWVPSNYITPVN [G29E]: the abundance fitness is -0.168 ± 0.1.

With NLFVALYDFVASGDNTLSITKGEKLRVLFYNHNGEWCEAQTKNGQGWVPSNYITPVN [G29F], the abundance fitness is -0.443 ± 0.093.

Take NLFVALYDFVASGDNTLSITKGEKLRVLVYNHNGEWCEAQTKNGQGWVPSNYITPVN [G29V]: the abundance fitness was -0.214 ± 0.084.

NLFVALYDFVASGDNTLSITKGEKLRVLGYNHHGEWCEAQTKNGQGWVPSNYITPVN [N33H]: the abundance fitness turned out to be 0.062 ± 0.11.

Take NLFVALYDFVASGDNTLSITKGEKLRVLGYNHIGEWCEAQTKNGQGWVPSNYITPVN [N33I]: the abundance fitness is -0.364 ± 0.075.

For the variant NLFVALYDFVASGDNTLSITKGEKLRVLGYNHGGEWCEAQTKNGQGWVPSNYITPVN [N33G], the abundance fitness turned out to be 0.065 ± 0.072.

As to NLFVALYDFVASGDNTLSITKGEKLRVLGYNHAGEWCEAQTKNGQGWVPSNYITPVN [N33A], the abundance fitness is 0.009 ± 0.085.

Turning to NLFVALYDFVASGDNTLSITKGEKLRVLGYNHDGEWCEAQTKNGQGWVPSNYITPVN [N33D], the abundance fitness is -0.068 ± 0.12.

In the case of NLFVALYDFVASGDNTLSITKGEKLRVLGYNHCGEWCEAQTKNGQGWVPSNYITPVN [N33C], the abundance fitness is -0.42 ± 0.2.

In the case of NLFVALYDFVASGDNTLSITKGEKLRVLGYNHFGEWCEAQTKNGQGWVPSNYITPVN [N33F], the abundance fitness is -0.044 ± 0.14.

NLFVALYDFVASGDNTLSITKGEKLRVLGYNHEGEWCEAQTKNGQGWVPSNYITPVN [N33E]: the abundance fitness was -0.003 ± 0.099.

As to NLFVALYDFVASGDNTLSITKGEKLRVLGYHHNGEWCEAQTKNGQGWVPSNYITPVN [N31H], the abundance fitness is -0.023 ± 0.16.

Turning to NLFVALYDFVASGDNTLSITKGEKLRVLGYPHNGEWCEAQTKNGQGWVPSNYITPVN [N31P], the abundance fitness is -0.27 ± 0.12.

For the variant NLFVALYDFVASGDNTLSITKGEKLRVLGYEHNGEWCEAQTKNGQGWVPSNYITPVN [N31E], the abundance fitness amounted to 0.012 ± 0.093.

Regarding NLFVALYDFVASGDNTLSITKGEKLRVLGYAHNGEWCEAQTKNGQGWVPSNYITPVN [N31A], the abundance fitness turned out to be 0.12 ± 0.062.

On to NLFVALYDFVASGDNTLSITKGEKLRVLGYFHNGEWCEAQTKNGQGWVPSNYITPVN [N31F], for which the abundance fitness was -0.447 ± 0.13.

Take NLFVALYDFVASGDNTLSITKGEKLRVLGYDHNGEWCEAQTKNGQGWVPSNYITPVN [N31D]: the abundance fitness came to 0.115 ± 0.082.

As for NLFVALYDFVASGDNTLSITKGEKLRVLGYMHNGEWCEAQTKNGQGWVPSNYITPVN [N31M], the abundance fitness was -0.512 ± 0.15.

With NLFVALYDFVASGDNTLSITKGEKLRVLGYQHNGEWCEAQTKNGQGWVPSNYITPVN [N31Q], the abundance fitness is -0.119 ± 0.098.

As to NLFVALYDFVASGDNTLSITKGEKLRVLGYKHNGEWCEAQTKNGQGWVPSNYITPVN [N31K], the abundance fitness worked out at 0.26 ± 0.081.

Regarding NLFVALYDFVASGDNTLSITKGEKLRVLGYRHNGEWCEAQTKNGQGWVPSNYITPVN [N31R], the abundance fitness stood at 0.064 ± 0.061.

For the variant NLFVALYDFVASGDNTLSITKGEKLRVLGYYHNGEWCEAQTKNGQGWVPSNYITPVN [N31Y], the abundance fitness was -0.052 ± 0.16.

For NLFVALYDFVASGDNTLSITKGEKLRVLGYGHNGEWCEAQTKNGQGWVPSNYITPVN [N31G], the abundance fitness amounted to 0.082 ± 0.074.

For NLFVALYDFVASGDNTLSITKGEKLRVLGYSHNGEWCEAQTKNGQGWVPSNYITPVN [N31S], the abundance fitness worked out at 0.031 ± 0.053.

Regarding NLFVALYDFVASGDNTLSITKGEKLRVLGYCHNGEWCEAQTKNGQGWVPSNYITPVN [N31C], the abundance fitness was found to be 0.214 ± 0.11.

For the variant NLFVALYDFVASGDNTLSITKGEKLRVLGYVHNGEWCEAQTKNGQGWVPSNYITPVN [N31V], the abundance fitness is -0.188 ± 0.084.

Consider NLFVALYDFVASGDNTLSITKGEKLRVLGYIHNGEWCEAQTKNGQGWVPSNYITPVN [N31I], for which the abundance fitness is -0.102 ± 0.39.

As to NLFVALYDFVASGDNTLSITKGEKLRVLGYTHNGEWCEAQTKNGQGWVPSNYITPVN [N31T], the abundance fitness is 0.064 ± 0.1.

As to NLFVALYDFVASGDNTLSITKGEKLRVLGYLHNGEWCEAQTKNGQGWVPSNYITPVN [N31L], the abundance fitness was -0.162 ± 0.085.
